In PubChem BioAssay AID2177 (The Scripps Research Institute Molecular Screening Center, 2009) one finds inhibition data, which are given here for 59 compounds.

Sequences of proteins named here, by UniProt entry; tags and fusion partners are left off. A change or cut given only in a name is not applied to a line headed by its entry.
UniProt O95372: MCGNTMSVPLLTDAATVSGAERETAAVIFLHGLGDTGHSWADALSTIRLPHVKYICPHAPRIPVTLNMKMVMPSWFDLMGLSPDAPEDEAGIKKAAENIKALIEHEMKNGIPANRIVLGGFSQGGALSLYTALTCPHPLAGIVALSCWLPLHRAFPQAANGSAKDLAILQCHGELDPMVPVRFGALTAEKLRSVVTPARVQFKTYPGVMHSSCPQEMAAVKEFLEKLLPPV

This is a selection; strong and weak results do not stand in their true shares. Active and inactive are the calls of the source.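 Rule for the calls: active = inhibition above the screen-wide mean plus 3 SD, limit set per campaign (cut at about 26% in these data); inactive = the rest.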

This experiment addresses Acyl-protein thioesterase 2 (Homo sapiens) (UniProt O95372). As to the kind of experiment: inhibition of human lysophospholipase 2 – biochemical, fluorescence polarization, FP-Rh probe ABPP, counter-screen for PME1 inhibitor project, primary screen (AID 2177).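 Note: 0% = LYPLA2 with DMSO and 100% = wells lacking LYPLA2 enzyme.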 To be noted: recombinant LYPLA2, FP-Rh probe fluorescence polarization; at 5.9 µM; active compounds read high. Background: Fluorescence polarisation rises when a labelled molecule tumbles more slowly, as on binding a larger partner.
Consider `COC(=O)c1cc2c(s1)N=C(c1ccccc1)N(C)P2(=O)N1CCOCC1` (centres undefined), for which the inhibition – broadly, the change of the read-out against control, counted positive when it falls – is inactive: 1.47%. For `Cc1ccc(OP(=O)(Nc2ccccn2)Oc2ccc(C)cc2)cc1`, the inhibition is inactive: -5.7%. The same measure for `CC(=O)NC(SC(=S)N(CC(C)C)CC(C)C)C(Cl)(Cl)Cl` (centres undefined): inactive: 8.65%. The same measure for `c1ccc(-c2nn[nH]n2)c(-c2nn[nH]n2)c1`: inactive: 1.54%; for `CCOC(=O)NC(Sc1ccccc1)C(Cl)(Cl)Cl` (centres undefined): inactive: 7.21%. As for `Cc1ccc(NP(=O)(Oc2cccc(C)c2)Oc2cccc(C)c2)nc1`, the inhibition is inactive: -4.98%. `CCNC(=S)/N=C(\N)N[N+](=O)[O-]`: the inhibition was inactive: -0.4%. Regarding `O=C(NC1CCS(=O)(=O)C1)NP(=S)(Oc1ccccc1)Oc1ccccc1` (centres undefined), the inhibition is inactive: -0.91%. In the case of `O=C(OC1CN2CCC1CC2)c1cccc(Cl)c1` (centres undefined) it was inactive: 11.5%. Regarding `C(Cc1nn[nH]n1)Cc1nn[nH]n1`, the inhibition was inactive: 1%. `Nc1ccc([As](=O)(O)c2ccc([N+](=O)[O-])cc2)cc1`: the inhibition was inactive: 0.98%. The same measure for `O=[As](O)(c1ccccc1)c1ccc(O)cc1`: inactive: 0.31%; for `O=[N+]([O-])c1ccc(O)c(/C=N/Nc2ccc([N+](=O)[O-])cc2[N+](=O)[O-])c1`: inactive: 3.06%; for `O=[N+]([O-])c1ncn(CCn2cnc([N+](=O)[O-])n2)n1`: inactive: -2.23%. Turning to `CC(=O)NC(SC(=S)N(C)C)C(Cl)(Cl)Cl` (centres undefined), the inhibition is inactive: -0.42%.

As to `O=P(Nc1nc2ccccc2s1)(c1ccccc1)c1ccccc1`, the inhibition is inactive: 6.62%. For `C[C@H]1OP(=O)(Oc2ccccc2)[C@H](O)[C@H](O)[C@H]1N=[N+]=[N-]` (some centres undefined), the inhibition is inactive: -0.24%. As to `O=P(Nc1ccccn1)(c1ccc(Br)cc1)c1ccc(Br)cc1`, the inhibition is inactive: -5.68%. Take `CN(C)C1(CNC(=O)c2ccc(Cl)c(S(N)(=O)=O)c2)CCCCC1`: the inhibition was inactive: 5.57%. The same measure for `c1nnnn1CCn1cnnn1`: inactive: 0.04%; for `CC(C)C(=O)NC(Sc1ccccc1)C(Cl)(Cl)Cl` (centres undefined): inactive: -2.1%; for `O=P(Nc1nccs1)(c1ccccc1)c1ccccc1`: inactive: 5.77%.

Regarding `CC1CCN(C(=O)Oc2c(Cl)cc(Cl)c3cccnc23)CC1`, the inhibition was inactive: 4.33%. Turning to `CC(C)=N/N=C(\N)N[N+](=O)[O-]`, the inhibition is inactive: -1.55%. The same measure for `CN(C)C(=O)OCCc1n(C)cc[n+]1C`: inactive: -2.12%; for `CCN(/C(=N/P(=O)(N1CCOCC1)N1CCOCC1)N1CCOCC1)c1ccc(OC)cc1`: inactive: -6.62%; for `Nc1ccc([As](=O)(O)c2ccc(N)cc2)cc1`: inactive: 0.93%. For `C[N+]1=C2C=CC=CC=C2SC12C([N+](=O)[O-])=CC([N+](=O)[O-])=C[C-]2[N+](=O)[O-]` (centres undefined), the inhibition was inactive: -3.51%.

Take `Cc1ccc(NP(=O)(Oc2ccccc2)Oc2ccccc2)nc1`: the inhibition was inactive: -2.33%. `CCc1nc2c(n1)c1c(non1O)c1c2no[n+]1[O-]`: the inhibition is inactive: 3.03%.

Consider `O=[N+]([O-])c1cc([N+](=O)[O-])c(CCNc2ccccc2)c([N+](=O)[O-])c1`, for which the inhibition is inactive: 13.9%. In the case of `O=[N+]([O-])c1cccc2n[nH]nc12` it was inactive: 6.48%; in that of `CC(=O)N1C2C3N(C(C)=O)C1C1N(C(C)=O)C(C(N1C(C)=O)N3C(C)=O)N2C(C)=O`, inactive: 11.3%; in that of `COc1ccc(C2=NCC(CBr)S2)cc1` (centres undefined), inactive: -5.61%. As for `O=[N+]([O-])c1cccc(NC2=NCC(CBr)S2)c1` (centres undefined), the inhibition was inactive: 2.48%. For the compound `O=[N+]([O-])c1ncn(CCn2ncnc2[N+](=O)[O-])n1`, the inhibition was inactive: -2.85%. `CC(C)(C)C(=O)NC(Sc1ccncn1)C(Cl)(Cl)Cl` (centres undefined): the inhibition is inactive: 1.21%.

`O=C(Nc1cc([As](=O)(O)O)ccc1O)c1ccccc1`: the inhibition is inactive: -3.26%.

Consider `CCN(N=Nc1nonc1N)c1nonc1N`, for which the inhibition is inactive: 0.08%. With `O=[N+]([O-])c1cc([N+](=O)[O-])c(CCN2CCOCC2)c([N+](=O)[O-])c1`, the inhibition is inactive: 17.8%. As for `Cc1cc(SC(NC(=O)c2ccc(F)cc2)C(Cl)(Cl)Cl)ncn1` (centres undefined), the inhibition is inactive: -2.58%.

Consider `CCOP(=O)(Nc1ccccc1)OCC`, for which the inhibition is inactive: 11.8%. For the compound `Cc1ccc(NP(=O)(Oc2ccccc2F)Oc2ccccc2F)nc1`, the inhibition is inactive: 1.41%. The same measure for `CN(C(=O)Cc1ccc(Cl)c(Cl)c1)[C@H]1CCCC[C@@H]1N1CCCC1`: inactive: 3.44%; for `O=P(Nc1nc2ccc(Cl)cc2s1)(c1ccccc1)c1ccccc1`: inactive: -1%; for `CC(=O)Nc1ccc([As](=O)(O)O)cc1`: inactive: 6.56%.

Consider `O=C(O)c1ccccc1[As](=O)(O)O`, for which the inhibition was inactive: 5.08%.

In the case of `Oc1ccccc1CNc1ccccn1`, the inhibition was inactive: 1.92%. In the case of `O=C(NC(Sc1ccncn1)C(Cl)(Cl)Cl)c1ccccc1` (centres undefined) it was inactive: -0.35%; in that of `Cc1c2non([O-])c-2c(C)[n+](=O)[n+]1[O-]`, inactive: 2.36%. On to `Nc1cc(N)c2nonc2c1[N+](=O)[O-]`, for which the inhibition is inactive: 5.5%. For the compound `CC(C)CC(=O)NC(Sc1ccc(Cl)cc1)C(Cl)(Cl)Cl` (centres undefined), the inhibition was inactive: -1.73%. For the compound `CN1CCCC(OC(=O)C(c2ccccc2)c2ccccc2)C1` (centres undefined), the inhibition was inactive: -4.01%.

In the case of `Clc1ccc(Cl)c(NC2=NCC(CBr)S2)c1` (centres undefined), the inhibition was inactive: -1.25%. Take `COc1ccccc1OP(=O)(Nc1ccc(C)cn1)Oc1ccccc1OC`: the inhibition was inactive: 0.32%. For the compound `Cc1ccc(OP(=O)(Nc2nccs2)Oc2ccc(C)cc2)cc1`, the inhibition was inactive: 0.52%. The same measure for `CN(C(=O)Cc1ccc(Cl)c(Cl)c1)[C@H]1CCCC[C@H]1N1CCCC1`: inactive: 1.67%; for `Cc1ccc(N/C(=N/P(=O)(N2CCOCC2)N2CCOCC2)N2CCOCC2)cc1`: inactive: 0.11%.

On to `NC(=O)c1cc([N+](=O)[O-])cc([N+](=O)[O-])c1N`, for which the inhibition was inactive: -1.2%.
